{"sequences": {"note": "Chains of the proteins cited; added tags and fusions are not shown.", "UniProt P31652, whole entry": "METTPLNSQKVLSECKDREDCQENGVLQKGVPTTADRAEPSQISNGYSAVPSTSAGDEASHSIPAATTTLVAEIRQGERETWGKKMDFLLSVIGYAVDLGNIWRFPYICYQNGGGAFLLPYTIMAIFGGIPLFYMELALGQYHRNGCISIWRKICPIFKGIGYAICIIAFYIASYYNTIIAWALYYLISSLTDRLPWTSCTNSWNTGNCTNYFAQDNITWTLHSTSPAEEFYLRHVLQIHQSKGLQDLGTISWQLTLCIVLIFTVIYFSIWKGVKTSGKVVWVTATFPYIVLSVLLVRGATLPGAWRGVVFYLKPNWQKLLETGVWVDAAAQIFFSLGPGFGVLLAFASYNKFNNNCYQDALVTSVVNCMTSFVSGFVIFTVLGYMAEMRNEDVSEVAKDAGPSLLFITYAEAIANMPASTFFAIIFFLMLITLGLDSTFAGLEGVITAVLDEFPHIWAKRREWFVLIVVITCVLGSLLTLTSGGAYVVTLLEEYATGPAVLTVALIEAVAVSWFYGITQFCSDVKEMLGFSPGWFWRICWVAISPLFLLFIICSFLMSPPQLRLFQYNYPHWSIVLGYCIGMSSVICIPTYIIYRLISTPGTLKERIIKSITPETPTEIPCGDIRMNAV"}, "source": "BindingDB's records for doi:10.1124/jpet.102.046318", "about": "(Georgetown University, 2003)", "target": "Sodium-dependent serotonin transporter (Rattus norvegicus, UniProt P31652)"}
{"smiles": "COC(=O)[C@H]1[C@@H](OC(=O)c2ccccc2)C[C@@H]2CC[C@H]1N2C", "note": "[NSC_446220]", "values": [{"measurement": "Ki", "result": 177, "unit": "nM"}]}
